scFv variants of Ab-14 (heavy chain) against a SARS-CoV-2 spike peptide

Target peptide (SARS-CoV-2 spike, HR2 region): PDVDLGDISGINAS

Parent scFv Ab-14: VH joined to VL by a (GGGGS)3 linker. Changes lie in the heavy chain CDRs alone.
VH: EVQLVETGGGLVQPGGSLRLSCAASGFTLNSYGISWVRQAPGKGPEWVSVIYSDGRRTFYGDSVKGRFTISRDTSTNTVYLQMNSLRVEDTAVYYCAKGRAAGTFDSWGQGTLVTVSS
VL: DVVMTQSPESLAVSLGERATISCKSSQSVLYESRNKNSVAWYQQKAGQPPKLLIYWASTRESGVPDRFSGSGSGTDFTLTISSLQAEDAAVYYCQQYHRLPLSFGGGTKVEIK

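Phage display of a naive human antibody library on the peptide gave the parent. Variants in AAYL49 differ from the parent at up to three CDR positions; double and triple changes were sampled at random. The assay is AlphaSeq: two haploid yeast populations carry antibody and antigen on their surface. Binding brings cells together so that they mate, and sequencing counts the barcode pairs among the diploids. A regression on co-assayed BCL2-family reference pairs converts the normalised counts of each replicate to an apparent Kd. There are three technical replicates.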

Each variant is given by its three heavy chain CDRs, as the data file delimits them; those of the parent are GFTLNSYGIS, VIYSDGRRTFYGDSVK, GRAAGTFDS.
All variants listed here change T104 of the VH, counted from its first residue.
The Kd shown is the geometric mean over detected replicates; a lower Kd is a better binder.
"no signal" means that the variant was in the library but no mating with the target was seen in any replicate; the authors take this as a sign of poor binding, and no number exists.
As a blank, each scFv also met three strains without target: over library AAYL49, 15% of these pairings were detected, typically at 11 µM and seldom below 680 nM.

Variant GFTLNSYGIS / VIYSDGRRTFYGDSVK / GRAPGQFIS showed 6.2 µM (1 of 3 replicates).
Variant GFTLNSYGIS / VIYSDGRRTFYHDSVK / GRLAGGFDS showed no signal (0 of 3 replicates).
Variant GFTLNSYGIS / VIYSDGRRTFYGDSVK / GRAAGSFMS showed 40 nM (3 of 3 replicates).
Variant GFTLNSYGIS / VIYSTGRRKFYGDSVK / GRAAGAFDS showed no signal (0 of 3 replicates).
Variant GFTLNSQGWS / VIYSDGRRTFYGDSVK / GRAAGDFDS showed no signal (0 of 3 replicates).
Variant GFTLNSYGIS / VIYSDNRRTQYGDSVK / GRAAGFFDS showed 110 µM (1 of 3 replicates).
Variant GFTLNSYGVS / VIYSDGRRTFYGDSVK / GRAAGYMDS showed 150 µM (1 of 3 replicates).
Variant GFTLNSYGIS / VIYSDGRRTFYGDSVK / GREAGFFFS showed 5.3 nM (3 of 3 replicates).
Variant GFTLNSYGIS / VIYSKGRRTFYGDSVK / GSAAGMFDS showed no signal (0 of 3 replicates).
Variant GFTLNSYGIS / VIYSDGRRTFYGYSVK / GRAAGCFDS showed no signal (0 of 3 replicates).
Variant GFTFNSYRIS / VIYSDGRRTFYGDSVK / GRAAGLFDS showed 32 µM (1 of 3 replicates).
Variant GFTLNIYGIS / VIYSDGRRTFYFDSVK / GRAAGKFDS showed no signal (0 of 3 replicates).
Variant GFTLNSYGIS / VIYSDGRRTFYGDSVK / GEDAGFFDS showed 3.6 nM (3 of 3 replicates).
Variant GFTLNSYGIS / VIYSDGRRTFYGDSVK / YRAFGAFDS showed 18 nM (3 of 3 replicates).
Variant GFPLNSYGIS / YIYSDGRRTFYGDSVK / GRAAGIFDS showed 7.4 µM (1 of 3 replicates).
Variant GFTLNSYGIS / VIYSDGRRTFYGDSVK / GRAAGFFDS showed 23 µM (1 of 3 replicates).
Variant GFTLNSYGIS / VIYSDGRMTFYGDSVK / GRAAGLFDS showed no signal (0 of 3 replicates).
Variant GFTLNSYGIS / VIYDDGRRTFYQDSVK / GRAAGRFDS showed no signal (0 of 3 replicates).
Variant GFTLNSYIIS / VIYSDGRRTFYGDSVK / GRAAGPFDS showed 4.4 µM (2 of 3 replicates).
Variant GITLNSYGIS / VIYSDGRRTFYGDSQK / GRAAGKFDS showed no signal (0 of 3 replicates).
Variant GFTLNLYGIS / VIYSDGRRTRYGDSVK / GRAAGQFDS showed no signal (0 of 3 replicates).
Variant GFTLNSYGIS / VIYSDGRRTFYGLSKK / GRAAGHFDS showed no signal (0 of 3 replicates).
Variant GFTLNSYGIS / VIYSDGRRTFYVDSVK / GRTAGLFDS showed 3.8 µM (1 of 3 replicates).
Variant GFTLNSYGIS / VITSDGRRTFYGDSVK / YRAAGFFDS showed 1.6 µM (1 of 3 replicates).
Variant GFTLNSYGIS / VIYSDGRRTFYGDAVK / GRAAGQFDS showed 9.3 µM (2 of 3 replicates).
Variant GFTLNSYGIS / VIYSDGRRTFYGDSLK / GRAAGSFDS showed 24 µM (2 of 3 replicates).
Variant GFTLNSYNGS / VIYSDGRRTFYGDSVK / GRAAGLFDS showed 46 µM (1 of 3 replicates).
Variant GFTLNSLGIS / VIYSDGRRTFYGDSVK / GRAAVKFDS showed 3.7 µM (3 of 3 replicates).
Variant GFTLNSDGIS / VIYSDGRRTFYGDSVK / GRAMGVFDS showed no signal (0 of 3 replicates).
Variant GFTLNSYGIS / VIRSYGRRTFYGDSVK / GRAAGPFDS showed no signal (0 of 3 replicates).
Variant GFTLNSYGIS / VIYSDGRRTFYGDSVK / GRAANKIDS showed 25 nM (3 of 3 replicates).
Variant GFTLNSYGIS / VIYSDGRRTFYGDSVK / GRCAGRFCS showed 2.9 nM (3 of 3 replicates).
Variant GFTLNSGGIS / VFYSDGRRTFYGDSVK / GRAAGFFDS showed no signal (0 of 3 replicates).
Variant GFTRNSYGIS / VIYSDGRRTDYGDSVK / GRAAGRFDS showed no signal (0 of 3 replicates).
Variant GFTLNSYGIS / VIYLDGRRGFYGDSVK / GRAAGVFDS showed 15 µM (3 of 3 replicates).
Variant GFTLNSYGIS / VIYSDGRRTFYGDSYK / GRAVGDFDS showed 460 nM (1 of 3 replicates).
Variant GFTLNSYGIS / VIYSDGRRTFYGDSVK / GRAAICFDN showed no signal (0 of 3 replicates).
Variant GFMLNSYGIS / VIYSDGRRTFYGDSVK / GRMAGWFDS showed no signal (0 of 3 replicates).
Variant GFTLISYGIS / VIYSDGRRTFYGDSVK / GRAAGAFDS showed 180 nM (3 of 3 replicates).
Variant GDTLNSYGIS / VIYSDGRRTEYGDSVK / GRAAGKFDS showed 43 nM (3 of 3 replicates).
Variant GFTLNSYGIS / VIYSDGRRTFYGDSVK / GRAAGAFDS showed no signal (0 of 3 replicates).
Variant GFTLNSYGIS / VIYSQGRRTYYGDSVK / GRAAGHFDS showed no signal (0 of 3 replicates).
Variant GFTLNSYGIS / VIYSDGRSTAYGDSVK / GRAAGFFDS showed 12 µM (1 of 3 replicates).
Variant GFTLNSYGIS / VIYSDGRRTFYGDSVK / GRAAGLFDS showed 5.1 nM (3 of 3 replicates).
Variant GFTLNSYGIS / VIYSDGRITFYGDSVK / LRAAGRFDS showed no signal (0 of 3 replicates).

7 of these entries, quoted again:

CDR-H1	CDR-H2	CDR-H3	apparent Kd	seen in
GFTLNSYGIS	VIYSDGRRTFYGDSVK	GREAGFFFS	5.3 nM	3 of 3
GITLNSYGIS	VIYSDGRRTFYGDSQK	GRAAGKFDS	no signal	0 of 3
GFTLNSYGIS	VIYSDGRRTFYGLSKK	GRAAGHFDS	no signal	0 of 3
GFTLNLYGIS	VIYSDGRRTRYGDSVK	GRAAGQFDS	no signal	0 of 3
GFTLNSDGIS	VIYSDGRRTFYGDSVK	GRAMGVFDS	no signal	0 of 3
GFTLNSYGIS	VIYSDGRRTFYGDSVK	GRAAGAFDS	no signal	0 of 3
GFTLNSYGIS	VIYSDGRRTFYGDSVK	GEDAGFFDS	3.6 nM	3 of 3

From the AlphaSeq antibody data of Engelhart et al. 2022 (doi:10.1038/s41597-022-01779-4), copy in the FLAb collection.